The values below are quoted from earlier work in paper PMC2692298.

Chains of the proteins cited; added tags and fusions are not shown. Residues count along the entry.
UniProt P48061, 22-89: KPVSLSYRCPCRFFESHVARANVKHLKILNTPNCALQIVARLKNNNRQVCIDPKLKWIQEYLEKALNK

This series deals with SDF-1/CXCL12 (Homo sapiens) (UniProt P48061). The series can be described thus: diffusion coefficient. The settings on record: cited from earlier work.

On to SDF-1/CXCL12 (from UniProt P48061), for which the Kd is 120 µM.

Broadly, the Kd is a measure of binding affinity in units of concentration.
